The record followed here is PubChem BioAssay AID488890 (Southern Research Specialized Biocontainment Screening …, 2010).

The list shows a part of the results, in another mix than the full data. Results filed as inconclusive are left out. How the calls were made is not given here.

The assay can be described thus: growth inhibition of non-replicating M. tuberculosis (AID 488890).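 Further: plate controls were DMSO cells for no effect and high antibiotic wells for full effect.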 The conditions noted are these: Mycobacterium tuberculosis non-replicating, at 25 µM, stronger effect = higher value.
Regarding `CCC(=O)N(c1ccccc1)C1(COC)CCN(CCn2nnn(CC)c2=O)CC1`, the inhibition is -7.91%. Under `CCC(=O)N(c1ccccc1)C1(COC)CCN(CCc2cccs2)CC1` stands -12.9%.
